# pIC50: −log10 of the molar value.
# The chains behind the UniProt entries cited, without tags or fusion partners. Where a name states a change or a piece, a line headed by the entry shows the natural chain unless it says otherwise. Residues count along the entry.
# UniProt P31751: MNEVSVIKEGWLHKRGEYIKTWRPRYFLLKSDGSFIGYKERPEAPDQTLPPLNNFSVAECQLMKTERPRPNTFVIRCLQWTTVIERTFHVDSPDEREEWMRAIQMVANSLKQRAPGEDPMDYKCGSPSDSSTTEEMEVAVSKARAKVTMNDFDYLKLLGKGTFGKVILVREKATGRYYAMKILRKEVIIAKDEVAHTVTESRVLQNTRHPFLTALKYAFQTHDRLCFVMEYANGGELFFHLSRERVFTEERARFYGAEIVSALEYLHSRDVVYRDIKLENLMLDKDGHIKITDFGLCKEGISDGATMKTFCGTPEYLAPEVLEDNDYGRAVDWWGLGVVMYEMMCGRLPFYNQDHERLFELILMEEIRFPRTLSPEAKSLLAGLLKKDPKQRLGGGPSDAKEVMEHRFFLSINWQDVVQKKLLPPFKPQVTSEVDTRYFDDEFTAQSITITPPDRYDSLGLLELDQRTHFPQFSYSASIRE
# UniProt P15056, whole entry: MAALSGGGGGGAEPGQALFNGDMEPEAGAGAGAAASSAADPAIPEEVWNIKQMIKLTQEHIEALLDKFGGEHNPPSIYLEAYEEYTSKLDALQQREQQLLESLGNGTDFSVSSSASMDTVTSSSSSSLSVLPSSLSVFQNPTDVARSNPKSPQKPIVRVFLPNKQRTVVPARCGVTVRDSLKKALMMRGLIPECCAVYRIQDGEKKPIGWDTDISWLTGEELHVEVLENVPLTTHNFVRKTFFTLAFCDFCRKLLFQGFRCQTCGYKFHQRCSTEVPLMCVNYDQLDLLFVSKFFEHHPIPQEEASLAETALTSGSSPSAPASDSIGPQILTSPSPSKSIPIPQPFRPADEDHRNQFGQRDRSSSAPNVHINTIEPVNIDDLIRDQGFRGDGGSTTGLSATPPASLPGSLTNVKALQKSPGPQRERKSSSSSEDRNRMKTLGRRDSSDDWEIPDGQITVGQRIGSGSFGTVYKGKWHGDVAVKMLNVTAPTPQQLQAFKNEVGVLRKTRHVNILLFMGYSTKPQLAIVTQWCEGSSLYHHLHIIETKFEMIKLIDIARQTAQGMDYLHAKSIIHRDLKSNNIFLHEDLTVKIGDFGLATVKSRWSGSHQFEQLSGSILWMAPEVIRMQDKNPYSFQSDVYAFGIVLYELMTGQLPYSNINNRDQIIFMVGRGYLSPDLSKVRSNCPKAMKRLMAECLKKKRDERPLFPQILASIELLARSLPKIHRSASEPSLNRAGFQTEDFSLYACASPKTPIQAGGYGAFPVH
# UniProt Q93008, 1551-1970: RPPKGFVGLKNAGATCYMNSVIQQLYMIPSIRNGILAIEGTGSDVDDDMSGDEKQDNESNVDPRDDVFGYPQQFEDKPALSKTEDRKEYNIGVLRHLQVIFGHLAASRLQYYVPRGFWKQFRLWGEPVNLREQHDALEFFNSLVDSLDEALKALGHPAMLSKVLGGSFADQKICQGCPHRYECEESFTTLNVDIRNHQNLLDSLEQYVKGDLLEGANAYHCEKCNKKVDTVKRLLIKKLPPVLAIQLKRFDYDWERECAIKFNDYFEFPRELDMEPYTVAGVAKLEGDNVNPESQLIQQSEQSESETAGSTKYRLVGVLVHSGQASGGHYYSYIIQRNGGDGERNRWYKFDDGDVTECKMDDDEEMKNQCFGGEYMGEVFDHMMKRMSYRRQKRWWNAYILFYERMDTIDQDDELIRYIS
# UniProt P15374: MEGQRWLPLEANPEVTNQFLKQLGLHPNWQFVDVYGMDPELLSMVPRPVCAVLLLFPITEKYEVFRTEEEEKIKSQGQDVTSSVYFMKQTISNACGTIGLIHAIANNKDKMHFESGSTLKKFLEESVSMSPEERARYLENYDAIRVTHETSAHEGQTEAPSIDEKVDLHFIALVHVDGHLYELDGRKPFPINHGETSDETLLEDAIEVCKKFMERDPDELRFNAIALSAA
# UniProt Q6DT37: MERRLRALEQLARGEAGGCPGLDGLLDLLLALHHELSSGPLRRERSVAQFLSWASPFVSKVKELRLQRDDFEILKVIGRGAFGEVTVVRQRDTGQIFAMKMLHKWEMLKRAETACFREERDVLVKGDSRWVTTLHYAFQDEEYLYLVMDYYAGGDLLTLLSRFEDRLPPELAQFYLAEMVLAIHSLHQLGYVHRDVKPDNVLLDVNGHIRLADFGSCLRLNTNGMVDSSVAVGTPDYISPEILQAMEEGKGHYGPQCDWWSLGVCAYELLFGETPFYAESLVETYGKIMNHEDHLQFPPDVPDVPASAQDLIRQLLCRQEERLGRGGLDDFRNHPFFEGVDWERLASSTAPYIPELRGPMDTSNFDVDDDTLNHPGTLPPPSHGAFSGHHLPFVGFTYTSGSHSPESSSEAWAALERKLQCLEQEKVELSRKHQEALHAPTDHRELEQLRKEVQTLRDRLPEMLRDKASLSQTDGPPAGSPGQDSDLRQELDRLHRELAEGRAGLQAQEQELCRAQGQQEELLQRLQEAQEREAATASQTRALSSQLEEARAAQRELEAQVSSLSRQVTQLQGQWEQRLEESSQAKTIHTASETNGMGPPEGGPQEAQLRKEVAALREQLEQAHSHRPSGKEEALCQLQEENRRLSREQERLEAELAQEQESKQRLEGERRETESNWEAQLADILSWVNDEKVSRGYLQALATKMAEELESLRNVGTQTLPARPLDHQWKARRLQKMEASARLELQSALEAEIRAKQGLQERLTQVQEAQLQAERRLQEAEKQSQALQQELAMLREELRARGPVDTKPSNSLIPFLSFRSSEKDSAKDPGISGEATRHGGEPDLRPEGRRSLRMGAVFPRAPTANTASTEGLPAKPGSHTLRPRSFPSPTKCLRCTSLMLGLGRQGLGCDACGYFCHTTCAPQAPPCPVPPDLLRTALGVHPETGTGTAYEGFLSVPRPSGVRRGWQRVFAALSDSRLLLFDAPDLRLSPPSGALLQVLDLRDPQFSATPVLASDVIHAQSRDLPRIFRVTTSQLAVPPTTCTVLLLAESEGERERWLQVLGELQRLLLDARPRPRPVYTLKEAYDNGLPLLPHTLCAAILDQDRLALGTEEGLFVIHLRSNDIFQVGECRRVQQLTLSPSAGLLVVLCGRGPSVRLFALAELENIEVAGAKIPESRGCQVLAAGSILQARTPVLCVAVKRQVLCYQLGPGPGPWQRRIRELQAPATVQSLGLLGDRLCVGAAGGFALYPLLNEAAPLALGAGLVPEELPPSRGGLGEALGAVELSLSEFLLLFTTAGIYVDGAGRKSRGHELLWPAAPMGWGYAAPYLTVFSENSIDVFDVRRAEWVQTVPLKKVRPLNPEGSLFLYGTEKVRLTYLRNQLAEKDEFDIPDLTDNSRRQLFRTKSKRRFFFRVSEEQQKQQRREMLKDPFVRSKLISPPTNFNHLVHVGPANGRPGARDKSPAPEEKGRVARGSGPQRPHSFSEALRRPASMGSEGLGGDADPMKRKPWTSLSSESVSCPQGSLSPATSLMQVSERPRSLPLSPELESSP
# UniProt P50613: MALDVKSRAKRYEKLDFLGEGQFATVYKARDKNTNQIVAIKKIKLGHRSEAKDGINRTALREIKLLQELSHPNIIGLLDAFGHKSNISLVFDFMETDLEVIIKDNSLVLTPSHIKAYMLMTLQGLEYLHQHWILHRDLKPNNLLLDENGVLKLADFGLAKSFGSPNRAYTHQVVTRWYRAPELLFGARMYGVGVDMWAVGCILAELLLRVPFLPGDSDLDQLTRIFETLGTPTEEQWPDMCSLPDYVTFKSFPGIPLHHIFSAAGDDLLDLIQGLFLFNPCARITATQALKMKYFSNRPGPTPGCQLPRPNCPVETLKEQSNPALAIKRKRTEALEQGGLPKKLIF
# UniProt Q86Y07: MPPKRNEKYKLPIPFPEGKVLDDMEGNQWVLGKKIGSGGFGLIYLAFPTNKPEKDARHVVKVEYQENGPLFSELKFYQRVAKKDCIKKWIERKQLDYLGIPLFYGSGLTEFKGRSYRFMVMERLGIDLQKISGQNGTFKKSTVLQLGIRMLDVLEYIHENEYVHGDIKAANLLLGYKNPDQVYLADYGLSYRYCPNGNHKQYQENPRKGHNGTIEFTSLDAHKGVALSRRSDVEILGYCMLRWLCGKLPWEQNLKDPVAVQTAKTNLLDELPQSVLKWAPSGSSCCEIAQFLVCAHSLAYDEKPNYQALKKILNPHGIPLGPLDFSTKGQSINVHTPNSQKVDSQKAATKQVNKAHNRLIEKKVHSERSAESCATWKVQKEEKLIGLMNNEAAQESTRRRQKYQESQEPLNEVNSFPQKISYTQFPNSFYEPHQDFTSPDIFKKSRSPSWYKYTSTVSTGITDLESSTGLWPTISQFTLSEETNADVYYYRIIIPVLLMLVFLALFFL
# UniProt P51817: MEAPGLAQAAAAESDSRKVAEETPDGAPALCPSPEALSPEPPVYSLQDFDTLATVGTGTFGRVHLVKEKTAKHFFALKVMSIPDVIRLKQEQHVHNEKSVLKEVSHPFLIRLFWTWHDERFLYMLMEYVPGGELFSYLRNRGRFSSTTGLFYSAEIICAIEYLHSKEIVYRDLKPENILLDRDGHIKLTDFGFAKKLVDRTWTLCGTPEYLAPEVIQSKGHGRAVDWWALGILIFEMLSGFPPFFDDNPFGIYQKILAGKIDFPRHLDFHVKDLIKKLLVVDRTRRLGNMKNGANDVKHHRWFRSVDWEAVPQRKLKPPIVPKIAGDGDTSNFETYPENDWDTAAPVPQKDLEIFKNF
# UniProt Q12866, 21-999: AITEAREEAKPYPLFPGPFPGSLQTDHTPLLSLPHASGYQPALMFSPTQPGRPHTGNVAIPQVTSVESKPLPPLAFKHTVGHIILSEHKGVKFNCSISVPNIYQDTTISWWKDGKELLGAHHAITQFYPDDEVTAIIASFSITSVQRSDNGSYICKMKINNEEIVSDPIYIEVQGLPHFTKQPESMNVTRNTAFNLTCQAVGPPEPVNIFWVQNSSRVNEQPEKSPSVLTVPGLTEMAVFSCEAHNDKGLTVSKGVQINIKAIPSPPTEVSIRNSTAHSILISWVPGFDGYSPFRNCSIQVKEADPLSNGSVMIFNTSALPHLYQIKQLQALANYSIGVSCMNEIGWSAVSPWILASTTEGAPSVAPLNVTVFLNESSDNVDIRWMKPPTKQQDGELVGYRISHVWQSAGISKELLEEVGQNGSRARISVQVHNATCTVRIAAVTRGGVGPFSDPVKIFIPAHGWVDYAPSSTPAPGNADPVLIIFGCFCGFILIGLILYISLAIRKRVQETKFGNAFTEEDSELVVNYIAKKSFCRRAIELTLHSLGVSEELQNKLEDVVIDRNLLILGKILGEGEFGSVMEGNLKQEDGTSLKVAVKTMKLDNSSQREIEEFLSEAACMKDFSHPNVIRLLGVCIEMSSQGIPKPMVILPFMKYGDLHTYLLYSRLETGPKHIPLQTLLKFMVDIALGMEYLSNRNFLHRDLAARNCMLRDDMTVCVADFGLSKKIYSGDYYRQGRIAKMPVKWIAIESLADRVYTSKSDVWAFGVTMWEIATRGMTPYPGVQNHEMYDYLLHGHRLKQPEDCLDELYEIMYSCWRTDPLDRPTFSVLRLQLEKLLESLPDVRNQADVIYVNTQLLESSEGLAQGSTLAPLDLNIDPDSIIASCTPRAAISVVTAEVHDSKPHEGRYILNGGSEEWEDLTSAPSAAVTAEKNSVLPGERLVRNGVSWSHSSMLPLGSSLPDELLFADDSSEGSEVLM
# UniProt P07947, whole entry: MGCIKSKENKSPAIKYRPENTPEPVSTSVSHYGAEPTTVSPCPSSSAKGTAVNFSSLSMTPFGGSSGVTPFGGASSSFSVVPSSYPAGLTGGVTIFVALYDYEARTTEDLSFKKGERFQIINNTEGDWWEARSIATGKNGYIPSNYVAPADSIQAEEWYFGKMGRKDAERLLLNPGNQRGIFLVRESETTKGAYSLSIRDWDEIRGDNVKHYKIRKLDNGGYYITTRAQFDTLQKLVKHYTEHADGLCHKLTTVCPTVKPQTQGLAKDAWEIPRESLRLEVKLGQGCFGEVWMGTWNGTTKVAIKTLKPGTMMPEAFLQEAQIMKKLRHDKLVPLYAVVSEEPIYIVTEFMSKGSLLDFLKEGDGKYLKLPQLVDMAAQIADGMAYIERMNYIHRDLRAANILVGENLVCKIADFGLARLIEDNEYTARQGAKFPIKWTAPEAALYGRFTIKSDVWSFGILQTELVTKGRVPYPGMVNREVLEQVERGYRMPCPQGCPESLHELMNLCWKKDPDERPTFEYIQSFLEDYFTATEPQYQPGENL
# Legend:
# DRAK2(h) = DRAK2(h) (Homo sapiens, UniProt O94768); experiment: biochemical
# BrSK2(h) = BrSK2(h) (Homo sapiens, UniProt Q8IWQ3); experiment: biochemical
# Ros(h) = Ros(h) (Homo sapiens, UniProt P08922); experiment: biochemical
# PDHK2(h) = PDHK2(h) (Homo sapiens, UniProt Q15119); experiment: biochemical
# Haspin(h) = Haspin(h) (Homo sapiens, UniProt Q8TF76); experiment: biochemical
# PDHK4(h) = PDHK4(h) (Homo sapiens, UniProt Q16654); experiment: biochemical
# Pim-2(h) = Pim-2(h) (Homo sapiens, UniProt Q9P1W9); experiment: biochemical
# PKBbeta(h) = PKBbeta(h) (Homo sapiens, UniProt P31751); experiment: biochemical
# SRMS(h) = SRMS(h) (Homo sapiens, UniProt Q9H3Y6); experiment: biochemical
# B-Raf(h) = B-Raf(h) (Homo sapiens, UniProt P15056); experiment: biochemical
# Pim-1(h) = Pim-1(h) (Homo sapiens, UniProt P11309); experiment: biochemical
# Histamine H3 = Histamine H3 (Homo sapiens, UniProt Q9Y5N1); experiment: biochemical; conditions: read-out: % Inh.
# [1] = system: panel of 10 individual USPs; experiment: SGC USP selectivity screen, whole panel; assay type: biochemical
# CDK1/cyclinB(h) = CDK1/cyclinB(h) (Homo sapiens, UniProt P06493); experiment: biochemical
# USP4 = USP4 (Homo sapiens, UniProt Q13107); experiment: biochemical; conditions: read-out: Activity (% Control)
# USP9X = USP9X (Homo sapiens, UniProt Q93008); experiment: biochemical; conditions: read-out: Activity (% Control)
# UCHL3 = UCHL3 (Homo sapiens, UniProt P15374); experiment: biochemical; conditions: read-out: Activity (% Control)
# ZIPK(h) = ZIPK(h) (Homo sapiens, UniProt O43293); experiment: biochemical
# PAR-1Balpha(h) = PAR-1Balpha(h) (Homo sapiens, UniProt Q7KZI7); experiment: biochemical
# NEK11(h) = NEK11(h) (Homo sapiens, UniProt Q8NG66); experiment: biochemical
# Motilin = Motilin (Homo sapiens, UniProt O43193); experiment: biochemical; conditions: read-out: % Inh.
# MDA-MB-231 = experiment: cells; conditions: Homo sapiens, MDA-MB-231, 72 h, read-out: antiproliferative effect
# MLK3(h) = MLK3(h) (Homo sapiens, UniProt Q16584); experiment: biochemical
# JNK2alpha2(h) = JNK2alpha2(h) (Homo sapiens, UniProt P45984); experiment: biochemical
# Pim-3(h) = Pim-3(h) (Homo sapiens, UniProt Q86V86); experiment: biochemical
# MRCKgamma(h) = MRCKgamma(h) (Homo sapiens, UniProt Q6DT37); experiment: biochemical
# IKKbeta(h) = IKKbeta(h) (Homo sapiens, UniProt O14920); experiment: biochemical
# CDK7/cyclinH/MAT1(h) = CDK7/cyclinH/MAT1(h) (Homo sapiens, UniProt P50613); experiment: biochemical
# [2] = biological target: Nitric Oxide Synthetase, Inducible (iNOS) (Homo sapiens, UniProt P35228); experiment: biochemical; conditions: read-out: % Inh.
# Fer(h) = Fer(h) (Homo sapiens, UniProt P16591); experiment: biochemical
# CaMKI(h) = CaMKI(h) (Homo sapiens, UniProt Q14012); experiment: biochemical
# Aurora-A(h) = Aurora-A(h) (Homo sapiens, UniProt O14965); experiment: biochemical
# HRI(h) = HRI(h) (Homo sapiens, UniProt Q9BQI3); experiment: biochemical
# TBK1(h) = TBK1(h) (Homo sapiens, UniProt Q9UHD2); experiment: biochemical
# VRK2(h) = VRK2(h) (Homo sapiens, UniProt Q86Y07); experiment: biochemical
# PrKX(h) = PrKX(h) (Homo sapiens, UniProt P51817); experiment: biochemical
# Mer(h) = Mer(h) (Homo sapiens, UniProt Q12866); experiment: biochemical
# CaMKIIdelta(h) = CaMKIIdelta(h) (Homo sapiens, UniProt Q13557); experiment: biochemical
# CDK5/p35(h) = CDK5/p35(h) (Homo sapiens, UniProt Q00535); experiment: biochemical
# CK1delta(h) = CK1delta(h) (Homo sapiens, UniProt P48730); experiment: biochemical
# DAPK2(h) = DAPK2(h) (Homo sapiens, UniProt Q9UIK4); experiment: biochemical
# Yes(h) = Yes(h) (Homo sapiens, UniProt P07947); experiment: biochemical
smiles,measurement,setting,value
"CC(C)C[C@@H](NC(=O)C1(C(F)(F)F)CCCCC1)C(=O)Nc1nnc(Cc2ccc(C#N)cc2)s1 [Compound 21, N-[(1R)-1-[[5-[(4-Cyanophenyl)methyl]-1,3,4-thiadiazol-2-yl]carbamoyl]-3-methyl-butyl]-1-(trifluoromethyl)cyclohexanecarboxamide]",inhibition at 10 µM,DRAK2(h),17.6%
same,inhibition at 10 µM,BrSK2(h),-0.32%
same,inhibition at 10 µM,Ros(h),0.5%
same,inhibition at 10 µM,PDHK2(h),10.3%
same,inhibition at 10 µM,Haspin(h),9.87%
same,inhibition at 10 µM,PDHK4(h),6.24%
same,inhibition at 10 µM,Pim-2(h),5.57%
same,inhibition at 10 µM,PKBbeta(h),6.13%
same,inhibition at 10 µM,SRMS(h),20%
same,inhibition at 10 µM,B-Raf(h),-7.19%
same,inhibition at 10 µM,Pim-1(h),15.1%
same,inhibition at 10 µM,Histamine H3,-2%
same,inhibition for seven other DUBs of the panel,[1],less than 50%
same,inhibition at 10 µM,CDK1/cyclinB(h),1.6%
same,remaining activity at 1 µM,USP4,102%
same,remaining activity at 10 µM,USP4,103%
same,remaining activity at 10 µM,USP9X,95%
same,remaining activity at 50 µM,USP9X,97%
same,remaining activity at 1 µM,UCHL3,113%
same,remaining activity at 10 µM,UCHL3,101%
same,inhibition at 10 µM,ZIPK(h),-0.39%
same,inhibition at 10 µM,PAR-1Balpha(h),-8.98%
same,inhibition at 10 µM,NEK11(h),-2.03%
same,inhibition at 10 µM,Motilin,10%
same,pIC50,MDA-MB-231,< 4.52
same,inhibition at 10 µM,MLK3(h),-2.48%
same,inhibition at 10 µM,JNK2alpha2(h),4.4%
same,inhibition at 10 µM,Pim-3(h),2.4%
same,inhibition at 10 µM,MRCKgamma(h),5.33%
same,inhibition at 10 µM,IKKbeta(h),-4.66%
same,inhibition at 10 µM,CDK7/cyclinH/MAT1(h),4.08%
same,inhibition at 10 µM,[2],-1%
same,inhibition at 10 µM,Fer(h),14.1%
same,inhibition at 10 µM,CaMKI(h),0.22%
same,inhibition at 10 µM,Aurora-A(h),21.2%
same,inhibition at 10 µM,HRI(h),-14.5%
same,inhibition at 10 µM,TBK1(h),-1.33%
same,inhibition at 10 µM,VRK2(h),6.47%
same,inhibition at 10 µM,PrKX(h),22.6%
same,inhibition at 10 µM,Mer(h),5.4%
same,inhibition at 10 µM,CaMKIIdelta(h),-6.77%
same,inhibition at 10 µM,CDK5/p35(h),-0.85%
same,inhibition at 10 µM,CK1delta(h),9.09%
same,inhibition at 10 µM,DAPK2(h),1.79%
same,inhibition at 10 µM,Yes(h),12.4%
"CC(C)C[C@H](NC(=O)C1(C(F)(F)F)CCCCC1)C(=O)Nc1nnc(Cc2ccc(C#N)cc2)s1 [Compound 22, CC(C)C[C@H](NC(=O)C1(CCCCC1)C(F)(F)F)C(=O)Nc2nnc(Cc3ccc(cc3)C#N)s2]",inhibition at 10 µM,DRAK2(h),6.43%
same,inhibition at 10 µM,BrSK2(h),-5.3%
same,inhibition at 10 µM,Ros(h),2.33%
same,inhibition at 10 µM,PDHK2(h),4.73%
same,inhibition at 10 µM,Haspin(h),11%
same,inhibition at 10 µM,PDHK4(h),-5.39%
same,inhibition at 10 µM,Pim-2(h),-2.68%
same,inhibition at 10 µM,PKBbeta(h),9.96%
same,inhibition at 10 µM,SRMS(h),10.2%
same,inhibition at 10 µM,B-Raf(h),-3.24%
same,inhibition at 10 µM,Pim-1(h),12.6%
same,inhibition at 10 µM,Histamine H3,2%
same,effect on the activity of any tested DUB target,[1],did not show a significant effect
same,inhibition at 10 µM,CDK1/cyclinB(h),-0.33%
same,remaining activity at 1 µM,USP4,98%
same,remaining activity at 10 µM,USP4,94%
same,remaining activity at 10 µM,USP9X,97%
same,remaining activity at 50 µM,USP9X,97%
same,remaining activity at 1 µM,UCHL3,105%
same,remaining activity at 10 µM,UCHL3,106%
same,inhibition at 10 µM,ZIPK(h),1.95%
same,inhibition at 10 µM,PAR-1Balpha(h),2.65%
same,inhibition at 10 µM,NEK11(h),3.19%
same,inhibition at 10 µM,Motilin,4%
same,pIC50,MDA-MB-231,< 4.52
same,inhibition at 10 µM,MLK3(h),0%
same,inhibition at 10 µM,JNK2alpha2(h),6.67%
same,inhibition at 10 µM,Pim-3(h),5.7%
same,inhibition at 10 µM,MRCKgamma(h),-2.61%
same,inhibition at 10 µM,IKKbeta(h),6.11%
same,inhibition at 10 µM,CDK7/cyclinH/MAT1(h),-2.13%
same,inhibition at 10 µM,[2],0%
same,inhibition at 10 µM,Fer(h),0.43%
same,inhibition at 10 µM,CaMKI(h),-2.64%
same,inhibition at 10 µM,Aurora-A(h),21.1%
same,inhibition at 10 µM,HRI(h),-10.7%
same,inhibition at 10 µM,TBK1(h),-1.29%
same,inhibition at 10 µM,VRK2(h),-0.65%
same,inhibition at 10 µM,PrKX(h),10.4%
same,inhibition at 10 µM,Mer(h),-0.22%
same,inhibition at 10 µM,CaMKIIdelta(h),-3.4%
same,inhibition at 10 µM,CDK5/p35(h),-11.6%
same,inhibition at 10 µM,CK1delta(h),-2.63%
same,inhibition at 10 µM,DAPK2(h),25.2%
same,inhibition at 10 µM,Yes(h),13.2%

# Reference: paper PMC10009755, “Discovery and Characterization of BAY-805, a Potent and Selective Inhibitor of Ubiquitin-Specific Protease USP21” (Journal of Medicinal Chemistry, 2023)
